Drawing on ChEMBL document CHEMBL1143672, “Synthesis and pharmacology of site-specific cocaine abuse treatment agents: restricted rotation analogues of methylphenidate” (J Med Chem, 2007), this text covers Ki for one compound.

Sequences of proteins named here, by UniProt entry; tags and fusion partners are left off.
UniProt Q9WTR4, whole entry: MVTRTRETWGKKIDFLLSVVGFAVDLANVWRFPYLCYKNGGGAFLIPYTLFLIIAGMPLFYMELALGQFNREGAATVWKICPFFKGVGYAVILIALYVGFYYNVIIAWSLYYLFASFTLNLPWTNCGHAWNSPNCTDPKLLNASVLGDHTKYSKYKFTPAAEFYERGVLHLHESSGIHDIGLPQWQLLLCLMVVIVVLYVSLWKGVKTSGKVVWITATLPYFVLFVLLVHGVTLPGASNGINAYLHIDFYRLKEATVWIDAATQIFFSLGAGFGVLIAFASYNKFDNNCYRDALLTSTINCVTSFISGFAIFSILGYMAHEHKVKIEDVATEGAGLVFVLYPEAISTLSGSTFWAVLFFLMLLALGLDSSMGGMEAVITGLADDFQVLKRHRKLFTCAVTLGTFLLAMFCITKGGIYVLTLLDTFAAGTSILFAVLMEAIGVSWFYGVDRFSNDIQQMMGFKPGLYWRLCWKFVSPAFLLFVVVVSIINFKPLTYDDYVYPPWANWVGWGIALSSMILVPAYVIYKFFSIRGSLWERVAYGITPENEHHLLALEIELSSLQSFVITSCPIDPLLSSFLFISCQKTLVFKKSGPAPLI

The target in the experiment is Norepinephrine transporter (Rattus norvegicus, UniProt Q9WTR4). As to the kind of experiment: Displacement of [3H]nisoxetine from NET in Sprague-Dawley rat cortical tissue.

SMILES strings stand for the structures. Structures can show the parent of a compound that is named as a salt.

On to `COC(=O)[C@H]1[C@@H](OC(=O)c2ccccc2)C[C@@H]2CC[C@H]1N2C` [COCAINE HYDROCHLORIDE], for which the affinity corresponds to a Ki of 1930 nM.
